Entries after “also recorded” stand apart in the source; their conditions may differ.
Key:
Assay type in all cases: cell-based, human
MDA-MB-231 spheroids = assay: 3D culture (cancer spheroids), MDA-MB-231
U-87 spheroids = assay: 3D culture (cancer spheroids), U-87
PPC-1 spheroids = assay: 3D culture (cancer spheroids), PPC-1

## NS(=O)(=O)c1ccc(O)c(N=Cc2ccc([N+](=O)[O-])s2)c1 [Compound 9, 4-Hydroxy-3-(((5-nitrothiophen-2-yl)methylene)amino)benzenesulfonamide]
MDA-MB-231 spheroids
  spheroid growth / size, MDA-MB-231: became smaller compared to the control
  viability of cells in spheroids, MDA-MB-231: reduced the viability; also recorded: strongest effect on cell viability reduction
U-87 spheroids
  spheroid growth / size, U-87: became more diffuse
  viability of cells in spheroids, U-87: reduced the viability; also recorded: strongest effect on cell viability reduction
PPC-1 spheroids
  spheroid growth / size, PPC-1: became more diffuse
  viability of cells in spheroids, PPC-1: reduced the viability; also recorded: strongest effect on cell viability reduction

Reference: article PMC12249541, “Novel Derivatives of 3-Amino-4-hydroxy-benzenesulfonamide: Synthesis, Binding to Carbonic Anhydrases, and Activity in Cancer Cell 2D and 3D Cultures” (International Journal of Molecular Sciences, 2025)
